Tests used:
FAK recombinant protein = FAK recombinant protein (Homo sapiens (Human), UniProt Q05397); experiment: Inhibitory activity against FAK enzyme (HTRF, TK substrate); details: read-out: IC50 against FAK enzyme
PC3 cells [1] = experiment: PC3 cell proliferation, 2D activity assay (Cell Titer-Lumi, 72 h); format: cell-based, human; details: read-out: 2D inhibitory activity against PC3 cells IC50
PC3 cells [2] = experiment: PC3 cell proliferation, 3D activity assay (3D culture, 14 days); format: cell-based, human; details: read-out: 3D inhibitory activity against PC3 cells IC50

Sequences of proteins named here, by UniProt entry; tags and fusion partners are left off.
UniProt Q05397, whole entry: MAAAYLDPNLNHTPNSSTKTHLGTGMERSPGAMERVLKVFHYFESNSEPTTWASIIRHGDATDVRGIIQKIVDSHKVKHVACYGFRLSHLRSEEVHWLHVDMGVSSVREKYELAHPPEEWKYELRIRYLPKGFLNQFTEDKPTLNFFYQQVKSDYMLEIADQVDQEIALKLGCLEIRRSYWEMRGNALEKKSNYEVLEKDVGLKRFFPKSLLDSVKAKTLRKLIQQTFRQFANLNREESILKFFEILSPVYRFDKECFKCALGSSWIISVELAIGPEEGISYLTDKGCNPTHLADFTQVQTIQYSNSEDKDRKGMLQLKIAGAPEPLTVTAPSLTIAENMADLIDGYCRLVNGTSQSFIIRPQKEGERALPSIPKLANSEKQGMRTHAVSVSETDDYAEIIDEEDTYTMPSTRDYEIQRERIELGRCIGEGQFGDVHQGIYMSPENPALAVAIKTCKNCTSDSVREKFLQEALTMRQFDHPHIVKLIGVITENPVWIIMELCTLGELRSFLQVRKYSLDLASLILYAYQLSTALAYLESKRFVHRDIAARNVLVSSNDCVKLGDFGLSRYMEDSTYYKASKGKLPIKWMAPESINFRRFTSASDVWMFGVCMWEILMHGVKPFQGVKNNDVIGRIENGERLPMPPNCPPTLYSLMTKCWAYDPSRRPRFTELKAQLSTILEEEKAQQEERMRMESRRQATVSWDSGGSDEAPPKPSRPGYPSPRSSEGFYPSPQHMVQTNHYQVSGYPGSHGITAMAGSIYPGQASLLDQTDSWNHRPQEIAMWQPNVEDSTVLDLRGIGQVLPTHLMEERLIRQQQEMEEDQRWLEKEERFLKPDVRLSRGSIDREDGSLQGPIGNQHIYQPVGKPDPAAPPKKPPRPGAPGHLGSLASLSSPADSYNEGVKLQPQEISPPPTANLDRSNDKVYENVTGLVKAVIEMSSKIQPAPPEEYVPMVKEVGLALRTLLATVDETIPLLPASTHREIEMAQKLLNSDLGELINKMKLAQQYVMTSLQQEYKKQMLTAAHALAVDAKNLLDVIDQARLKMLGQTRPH

Row | IC50 (FAK recombinant protein) | IC50 (PC3 cells [1]) | IC50 (PC3 cells [2]) | SMILES
1 | < 20 nM | > 2000 nM | < 5 nM | COc1cc(N2CCC(N3CCN(C)CC3)C2)ccc1Nc1ncc(Cl)c(Oc2cccc3c2C(=O)N(C)C32CC2)n1 (centres unmarked)
2 | – | > 2000 nM | < 5 nM | [2H]C([2H])([2H])N1CCC(NC(=O)c2ccc(Nc3ncc(C(F)(F)F)c(Oc4cccc5c4C(=O)N(C)C54CC4)n3)c(OC)c2)CC1

Source: patent publication US20250154134A1, “COMPOUND AS FAK INHIBITOR AND USE THEREOF” (WIGEN BIOMEDICINE TECHNOLOGY (SHANGHAI) CO., LTD., priority 2022, published 2025)
